# Reference: patent publication US4673747A, “Aminoalkylphenoxy derivatives” (Ikeda Mohando Co., Ltd., priority 1984, dated 1987)
# Chains of the proteins cited; added tags and fusions are not shown.
# UniProt P47747, whole entry: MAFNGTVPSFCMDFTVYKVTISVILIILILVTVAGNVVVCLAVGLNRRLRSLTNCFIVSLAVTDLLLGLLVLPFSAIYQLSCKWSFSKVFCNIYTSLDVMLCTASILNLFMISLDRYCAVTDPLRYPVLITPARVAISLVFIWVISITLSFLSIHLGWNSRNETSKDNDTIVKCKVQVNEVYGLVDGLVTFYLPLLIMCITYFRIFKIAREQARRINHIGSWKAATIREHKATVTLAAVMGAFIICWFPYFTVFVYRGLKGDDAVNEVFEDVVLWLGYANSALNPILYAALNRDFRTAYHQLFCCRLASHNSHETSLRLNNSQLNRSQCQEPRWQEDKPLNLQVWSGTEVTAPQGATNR
# Molecular target: T1, Histamine H2-Receptor (Cavia porcellus, UniProt P47747)
# T1 construct: from tissue; host or cells: isolated atrium of male Hartley guinea pig
# Parameters: species or system guinea pig (male Hartley)
# Description: A male Hartley guinea pig having a body weight of about 400 g was killed by cervical dislocation, and the artrium thereof was isolated and was suspended in an organ bath containing 50 ml of a modified Ringer solution and subjected to a tension of 1 g. The number of heart beats under such condition was recorded using a polygraph.
# Initially, from 1×10^-7 mol to 3×10^-4 mol of histamine was allowed to act accumulatively to depict the curve of the dosage-reaction relationship. Likewise, the curve of the dosage of histamine-reaction relationship was depicted in the presence of 5×10^-7 mol to 1×10^-6 mol of the test sample which was injected 3 minutes before. The negative logarithm (pA2) of the molar concentration of the test sample required for moving the curve obtained by single administration of histamine parallel to the right side by a two-times concentration was calculated.
smiles,measurement,value
"CN/C(=N/CCSCc1nc[nH]c1C)NC#N [Cimetidine, reference compound]",Kb,0.355 µM
